Biological target: Translocator protein (Homo sapiens, UniProt P30536)
Experiment: Binding affinity to PBR in human mitochondrial tissue
How it was run: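 Mitochondrial fractions (rat, rhesus monkey or human) were incubated with [³H]PK 11195 (0.38 nM final) and eight test-ligand concentrations for 2 h at 4 °C. Samples were filtered on PEI-presoaked GF/B filters, washed with ice-cold buffer and counted. Nonspecific binding was taken at the top inhibitor level (0.1–0.3 µM). Triplicate curves were run in two independent experiments. IC₅₀ was converted to K_i by Cheng–Prusoff, using K_D from homologous PK 11195 displacement.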

By UniProt entry, the sequences of proteins in these tests, tags left out.
UniProt P30536, whole entry: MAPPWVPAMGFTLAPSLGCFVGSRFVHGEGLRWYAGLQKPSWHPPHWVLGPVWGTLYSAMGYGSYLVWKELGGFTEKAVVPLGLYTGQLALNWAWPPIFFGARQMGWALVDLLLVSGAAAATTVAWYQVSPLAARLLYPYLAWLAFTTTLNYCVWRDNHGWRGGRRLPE

SMILES: CC[C@H](C)N([11CH3])C(=O)c1cc2ccccc2c(-c2ccccc2Cl)n1
- Ki: 4.5 nM

From ChEMBL document CHEMBL1140697, “Synthesis and evaluation in monkey of two sensitive 11C-labeled aryloxyanilide ligands for imaging brain peripheral benzodiazepine receptors in vivo” (J Med Chem, 2008)
